Experimental data as given in ChEMBL document CHEMBL6134899 (J Med Chem, 2025).

The chains behind the UniProt entries cited, without tags or fusion partners.
UniProt Q01959, whole entry: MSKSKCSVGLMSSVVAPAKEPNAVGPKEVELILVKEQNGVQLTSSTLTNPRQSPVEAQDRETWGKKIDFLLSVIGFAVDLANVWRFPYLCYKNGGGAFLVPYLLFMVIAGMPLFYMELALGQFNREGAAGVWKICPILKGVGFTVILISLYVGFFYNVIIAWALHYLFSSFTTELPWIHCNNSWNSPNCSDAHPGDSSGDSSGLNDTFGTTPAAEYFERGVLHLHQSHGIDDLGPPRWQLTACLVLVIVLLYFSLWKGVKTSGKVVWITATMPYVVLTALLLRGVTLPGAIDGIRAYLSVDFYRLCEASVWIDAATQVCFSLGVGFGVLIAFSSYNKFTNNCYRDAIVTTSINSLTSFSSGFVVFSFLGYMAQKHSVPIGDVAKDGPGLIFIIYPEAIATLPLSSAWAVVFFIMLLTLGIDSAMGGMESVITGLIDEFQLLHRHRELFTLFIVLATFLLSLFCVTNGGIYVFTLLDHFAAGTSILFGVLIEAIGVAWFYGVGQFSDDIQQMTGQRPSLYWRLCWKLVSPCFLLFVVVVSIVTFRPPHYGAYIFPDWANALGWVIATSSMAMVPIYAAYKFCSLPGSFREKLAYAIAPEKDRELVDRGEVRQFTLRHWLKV
UniProt P31645, whole entry, looked up: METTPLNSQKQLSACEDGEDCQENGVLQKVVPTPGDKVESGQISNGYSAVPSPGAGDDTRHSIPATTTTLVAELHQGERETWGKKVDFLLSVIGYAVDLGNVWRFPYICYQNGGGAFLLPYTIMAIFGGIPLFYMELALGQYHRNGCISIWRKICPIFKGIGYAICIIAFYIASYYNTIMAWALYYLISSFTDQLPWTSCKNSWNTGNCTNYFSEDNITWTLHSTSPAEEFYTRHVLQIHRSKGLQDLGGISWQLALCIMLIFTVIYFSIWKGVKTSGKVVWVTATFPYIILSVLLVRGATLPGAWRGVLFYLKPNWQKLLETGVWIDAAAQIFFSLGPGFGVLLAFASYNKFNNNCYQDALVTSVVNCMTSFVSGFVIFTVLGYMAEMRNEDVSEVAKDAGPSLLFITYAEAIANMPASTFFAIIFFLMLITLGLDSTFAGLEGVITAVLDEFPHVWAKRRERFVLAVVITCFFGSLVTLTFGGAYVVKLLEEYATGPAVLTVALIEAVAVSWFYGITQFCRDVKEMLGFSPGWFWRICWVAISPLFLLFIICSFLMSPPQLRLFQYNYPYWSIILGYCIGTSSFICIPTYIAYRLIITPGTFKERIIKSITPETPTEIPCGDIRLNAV

How the values were obtained:
[1] = molecular target: Sodium-dependent dopamine transporter (Homo sapiens) (UniProt Q01959); assay: Inhibition of DAT receptor (unknown origin) at 100 nM
[2] = molecular target: Sodium-dependent serotonin transporter (Homo sapiens) (UniProt P31645); assay: Inhibition of SERT receptor (unknown origin) at 100 nM
[3] = molecular target: Sodium-dependent dopamine transporter (Homo sapiens) (UniProt Q01959); assay: Displacement of [3H]BTCP from recombinant human DAT receptor expressed in CHO cells at 10 uM incubated for 120 mins by scintillation counting method; assay type: cell-based
Procedure, shortened: (§1)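 Radioligand displacement run by a commercial provider, with test compound at 10 μM. Reported as mean ± SD of two independent measurements, each in duplicate.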

[4] = molecular target: Sodium-dependent serotonin transporter (Homo sapiens) (UniProt P31645); assay: Displacement of [3H]imipramine from recombinant human SERT receptor expressed in CHO cells at 10 uM incubated for 60 mins by scintillation counting method; assay type: cell-based; procedure, shortened: as §1

Row | SMILES | inhibition [1] | inhibition [2] | Activity [3] | Activity [4]
1 | c1ccc(CN2CCCC[C@H]3NCC[C@H]32)cc1 | Active | Active | – | –
2 | c1ccc(CN2CCCCC3NCCC32)cc1 (racemic) | – | – | Active | Active
3 | c1ccc(CN2CCCC[C@@H]3NCC[C@H]32)cc1 | – | – | Active | Active

Calls of active or inactive are those of the source. The calls are words filed in the database; no cut-off is given here.
